Reference: patent US9604982B2, “P2X7 modulators” (Janssen Pharmaceutica NV, priority 2013, dated 2017)

Sequences of proteins named here, by UniProt entry; tags and fusion partners are left off. A change or cut given only in a name is not applied to a line headed by its entry.
UniProt Q64663: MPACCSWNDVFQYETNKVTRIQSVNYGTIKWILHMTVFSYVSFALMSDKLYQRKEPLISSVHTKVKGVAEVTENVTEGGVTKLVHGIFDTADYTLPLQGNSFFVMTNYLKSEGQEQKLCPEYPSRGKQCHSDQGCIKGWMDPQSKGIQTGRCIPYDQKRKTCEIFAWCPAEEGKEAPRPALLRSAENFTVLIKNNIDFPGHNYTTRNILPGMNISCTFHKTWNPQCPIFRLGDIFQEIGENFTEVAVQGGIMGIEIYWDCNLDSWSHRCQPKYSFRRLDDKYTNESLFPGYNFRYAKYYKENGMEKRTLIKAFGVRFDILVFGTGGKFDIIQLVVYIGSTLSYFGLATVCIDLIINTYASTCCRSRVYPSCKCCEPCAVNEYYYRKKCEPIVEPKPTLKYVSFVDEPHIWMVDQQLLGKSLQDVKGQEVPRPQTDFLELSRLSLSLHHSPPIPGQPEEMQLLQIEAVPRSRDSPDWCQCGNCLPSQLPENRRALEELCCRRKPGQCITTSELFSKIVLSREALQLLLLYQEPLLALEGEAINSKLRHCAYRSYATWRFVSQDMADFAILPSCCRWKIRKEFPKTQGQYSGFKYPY
UniProt Q99572: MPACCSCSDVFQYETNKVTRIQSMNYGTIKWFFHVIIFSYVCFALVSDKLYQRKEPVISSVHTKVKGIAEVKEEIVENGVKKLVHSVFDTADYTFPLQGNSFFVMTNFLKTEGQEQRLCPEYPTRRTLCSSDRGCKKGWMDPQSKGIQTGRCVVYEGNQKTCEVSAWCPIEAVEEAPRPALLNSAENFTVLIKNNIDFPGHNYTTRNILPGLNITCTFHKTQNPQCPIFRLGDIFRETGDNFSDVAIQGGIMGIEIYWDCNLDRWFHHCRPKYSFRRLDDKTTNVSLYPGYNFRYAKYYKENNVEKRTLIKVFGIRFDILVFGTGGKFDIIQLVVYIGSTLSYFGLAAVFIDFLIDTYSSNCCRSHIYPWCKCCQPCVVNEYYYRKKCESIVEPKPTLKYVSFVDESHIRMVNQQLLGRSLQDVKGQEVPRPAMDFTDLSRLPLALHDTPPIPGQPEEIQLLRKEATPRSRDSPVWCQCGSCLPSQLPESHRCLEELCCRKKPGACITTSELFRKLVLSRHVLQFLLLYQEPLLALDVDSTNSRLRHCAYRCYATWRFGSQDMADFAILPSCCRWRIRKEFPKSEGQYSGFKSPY

Tests used:
rat P2X7 = rat P2X7 (Rattus norvegicus (Rat), UniProt Q64663); assay: Radioligand binding, rat P2X7-1321N1 cell membranes, tracer tritiated A-804598; details: Table 3 (additional runs)
Protocol: (§1) P2X7 Antagonism in Recombinant Human P2X7 Cells or Recombinant Rat P2X7 Cells: (a) Ca^2+ Flux and (b) Radioligand Binding
(§2) (b) Radioligand binding: human or rat P2X7-1321N1 cells were collected and frozen @ −80° C. On the day of the experiment, cell membrane preparations were made according to standard published methods. The total assay volume was 100 μl:10 μl compound (10×)+(b) 40 μl tracer (2.5×)+50 μl membrane (2×). The tracer used for the assay was tritiated A-804598. The compound can be prepared as described in the literature. […] The assay was terminated by filtration (GF/B filters pre-soaked with 0.3% PEI) and washed with washing buffer (Tris-HCl 50 mM). The IC50 generated in the binding assay was corrected for tracer concentration and affinity of the tracer to derive at the affinity (K) of the test compounds. […] Data are analyzed and graphed on Graphpad Prism 5.

P2X7 [1] = target: T1, P2X7 (Homo sapiens (Human), UniProt Q99572); assay: Ca2+ flux (FLIPR) in 1321N1 cells expressing recombinant human P2X7 channel; assay type: cell-based; details: Table 3 (additional runs); 250 μM BzATP
Protocol: as §1
(a) Ca^2+ flux: 1321N1 cells expressing the recombinant human or rat P2X7 channel was cultured in HyQ DME/(HyClone/Dulbecco's Modified Eagle Medium) high glucose supplemented with 10% Fetal Bovine Serum (FBS) and appropriate selection marker. Cells were seeded at a density of 25000 cells/well (96-well clear bottom black walled plates) in 100 μl volume/well. On the day of the experiment, cell plates were washed with assay buffer, containing (in mM): 130 NaCl, 2 KCl, 1 CaCl2, 1 MgCl2, 10 HEPES, 5 glucose; pH 7.40 and 300 mOs. After the wash, cells were loaded with the Calcium-4 dye (Molecular Device) and incubated in the dark for 60 minutes. Test compounds were prepared at 250× the test concentration in neat DMSO. Intermediate 96-well compound plates were prepared by transferring 1.2 μL of the compound into 300 μL of assay buffer. A further 3× dilution occurred when transferring 50 μL/well of the compound plate to 100 μL/well in the cell plate. Cells were incubated with test compounds and dye for 30 minutes. Calcium dye fluorescence was monitored in FLIPR as the cells were challenged by adding 50 μL/well of BzATP (final concentration is 250 μM BzATP (human and rat)). The fluorescence change was measured 180 seconds after adding the agonist.

P2X7 [2] = target: T1, P2X7; assay: Radioligand binding, human P2X7-1321N1 cell membranes, tracer tritiated A-804598; details: Table 3 (additional runs)
Protocol: as §1, §2

Structure (SMILES) | Ki (rat P2X7) [nM] | IC50 (P2X7 [1]) [nM] | Ki (P2X7 [2]) [nM]
Cc1nc2c(c(-c3ccn[nH]3)n1)C[C@H](C)N(C(=O)c1ccc(Cl)cc1F)C2 (single isomer, unassigned) [Example 89, (S*)-(4-chloro-2-fluorophenyl)(2,6-dimethyl-4-(1H-pyrazol-5-yl)-5,6-dihydropyrido[3,4-d]pyrimidin-7(8H)-yl)methanone] | 1.2 | – | –
Cc1nc2c(c(-c3ccn[nH]3)n1)C[C@@H](C)N(C(=O)c1cccc(F)c1Cl)C2 (single isomer, unassigned) [Example 144, (R*)-(2-chloro-3-fluorophenyl)(2,6-dimethyl-4-(1H-pyrazol-5-yl)-5,6-dihydropyrido[3,4-d]pyrimidin-7(8H)-yl)methanone] | – | 66.7 | –
Cc1nc2c(c(-c3ccn[nH]3)n1)CC(C)N(C(=O)c1cccc(F)c1Cl)C2 (stereo not shown) [Example 143, (2-chloro-3-fluorophenyl)(2,6-dimethyl-4-(1H-pyrazol-5-yl)-5,6-dihydropyrido[3,4-d]pyrimidin-7(8H)-yl)methanone] | – | 19.6 | 100
